# Yeast mating assay 1: variants of the scFv Ab-14

The target is the same throughout: PDVDLGDISGINAS, from the HR2 region of SARS-CoV-2 spike.

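AAYL50 was designed without a model: most single CDR substitutions and a random sample of double and triple ones. AlphaSeq pools MATa yeast showing the antibodies with MATalpha yeast showing the peptide. Pairs that bind mate more often; barcode pairs of the diploids are counted by sequencing. Read counts were normalised to the haploid input and turned into Kd by a linear fit to BCL2-family pairs of known affinity, for each replicate. There are three technical replicates.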

Each scFv is VH, a (GGGGS)3 linker, VL, as in the parent Ab-14, and differs from it in the CDRs of the light chain only.
VH: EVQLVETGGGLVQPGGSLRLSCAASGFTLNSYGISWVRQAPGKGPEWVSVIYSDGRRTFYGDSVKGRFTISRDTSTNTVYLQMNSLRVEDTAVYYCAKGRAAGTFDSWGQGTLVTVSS
VL: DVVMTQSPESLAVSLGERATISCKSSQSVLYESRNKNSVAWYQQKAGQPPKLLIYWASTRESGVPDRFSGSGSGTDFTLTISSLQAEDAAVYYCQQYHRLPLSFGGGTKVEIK

Variants are written as CDR1, CDR2 and CDR3 of the light chain (limits as in the source). Parent: KSSQSVLYESRNKNSVA, WASTRES, QQYHRLPLS. Affinities are written as log10 Kd with Kd in nM; a lower number is a better binder. Where no diploid with the target was found in that replicate, the entry reads "ND": below detection, most likely a poor binder, though not proof of it. As a blank, each scFv also met three strains without target: over library AAYL50, 18% of these pairings were detected, typically at 4.19 and seldom below 2.99. Also given: how often the same scFv was detected with the empty control strains, with their mean in brackets.

| # | CDR-L1 | CDR-L2 | CDR-L3 | log10 Kd (nM) by replicate | control signals |
|---|---|---|---|---|---|
| 1 | KSSQSKLYESRNSNSVA | WASTRES | QQIHRLPLS | 5.91 4.57 6.21 | 3 of 9 (4.29) |
| 2 | KSSQSVLYESRNKNSAA | WASTREF | QQYGRLPLS | ND 4.65 ND | 2 of 9 (4.71) |
| 3 | KSSQSVLYESRNKNIVA | WASLRES | QQYHRLPAS | ND ND ND | 1 of 9 (4.56) |
| 4 | KSSQSVLLESRNKNVVA | WASTRES | QVYHRLPLS | 6.03 3.94 6.23 | 3 of 9 (4.81) |
| 5 | KSIQSVLYESRNKNSVD | WASTRES | YQYHRLPLS | 3.97 ND ND | 1 of 9 (3.42) |
| 6 | KSSQSQLYERNNKNSVA | WASTRES | QQYHRLPLS | 1.54 1.44 1.69 | 6 of 9 (4.56) |
| 7 | KSSQSVLYESRNKCSVA | WMSTRES | QQYHHLPLS | 2.63 2.10 2.76 | 0 of 9 |
| 8 | YSSMSVLYESRNKNSVA | WANTRES | QQYHRLPLS | ND ND ND | 0 of 9 |
| 9 | KSSQSVLYESANKNSVA | WASTRES | QQYRRLPLH | 1.36 1.27 1.46 | 2 of 9 (4.34) |
| 10 | KSEQSVLYVSRNKNSVA | WPSTRES | QQYHRLPLS | ND ND ND | 1 of 9 (3.29) |
| 11 | KQSQSVLYESRCKNSVA | WASTSES | QQYHRLPLS | ND ND ND | 0 of 9 |
| 12 | KSSQSVGYESRNKNSVA | KASTREG | QQYHRLPLS | 0.48 0.60 0.52 | 1 of 9 (3.89) |
| 13 | KSSQSVLYESRNPNSVA | WASTRED | QQYHRLPSS | 2.47 2.02 3.58 | 1 of 9 (4.17) |
| 14 | KSSQSVLYESRNKNSVA | WASYRES | QQYHRPPVS | 2.34 2.52 2.52 | 1 of 9 (3.68) |
| 15 | KSSQSVLPESRNKNSMA | WASTRES | HQYHRLPLS | ND ND ND | 1 of 9 (2.70) |
| 16 | ASSQSVLYESRNKNSVA | WASTHES | QQYHRLPNS | ND ND 3.56 | 1 of 9 (3.66) |
| 17 | KSSQSVLYESRNKNSVA | WASTRES | QQYHWLPLS | ND ND ND | 0 of 9 |
| 18 | CSSQSVLIESLNKNSVA | WASTRES | QQYHRLPLS | 1.43 1.69 1.67 | 4 of 9 (4.96) |
| 19 | KSSQSVLYESRNKISVA | WASTKES | QQYHILPLS | 4.29 ND ND | 0 of 9 |
| 20 | KSSQSVLYESREDNSVA | WASTRES | CQYHRLPLS | 1.02 1.04 0.88 | 1 of 9 (3.19) |
| 21 | KSSCSVLYESRNKNVVA | WASTRES | QQYHALPLS | ND ND ND | 0 of 9 |
| 22 | KTSQSVLYESRNKNSVA | WASTRES | QQYHRLHLS | 2.11 2.01 2.27 | 5 of 9 (4.07) |
| 23 | KLSQSVLYESRNKNSVA | DASTRES | QQYHGLPLS | -0.66 -0.23 -0.55 | 5 of 9 (5.12) |
| 24 | KSSQSVYYESRNKVSVA | WASTRES | QQYHGLPLS | ND ND ND | 1 of 9 (4.05) |
| 25 | KSSTSVLYESRNKNSVC | WASTRES | QQYHRLPPS | ND ND ND | 0 of 9 |
| 26 | SSSQSVLYESRPKNSVA | WASTPES | QQYHRLPLS | 6.32 ND 4.65 | 5 of 9 (4.53) |
| 27 | KSSQSVYYESRNKNYVE | WASTRES | QQYHRLPLS | ND ND ND | 2 of 9 (3.44) |
| 28 | KSSQSVLYESRNKNSVA | WASTRES | QQYYRPFLS | 0.75 0.87 0.91 | 0 of 9 |
| 29 | KLSQSVLKESRNKNSVA | WASTRES | QQYHVLPLS | -0.41 -0.02 -0.26 | 4 of 9 (4.70) |
| 30 | KSSQSVLYWSGNKNSVA | WASTRES | QQYHRQPLS | 5.78 5.64 5.27 | 4 of 9 (4.66) |
| 31 | KSSQSVLYESRQKNYVA | WASTREL | QQYHRLPLS | 2.99 ND ND | 1 of 9 (4.49) |
| 32 | RSSQSVLQESRNKNSIA | WASTRES | QQYHRLPLS | 0.73 0.83 0.83 | 5 of 9 (4.60) |
| 33 | KSSQSNLVLSRNKNSVA | WASTRES | QQYHRLPLS | 4.08 5.16 5.01 | 2 of 9 (4.75) |
| 34 | KSSDSVLYESRVKNSVK | WASTRES | QQYHRLPLS | 4.03 ND 4.08 | 4 of 9 (3.99) |
| 35 | KSSQSVLYESRNKMSVA | WASTRES | QQYHRLPLS | 1.35 1.40 1.52 | 1 of 9 (4.08) |
| 36 | KSSQSVYYEFRNKNSVA | WASTRES | QQYHRLPLM | 2.26 1.99 2.24 | 2 of 9 (4.03) |
| 37 | RSSYSWLYESRNKNSVA | WASTRES | QQYHRLPLS | 0.65 0.87 0.96 | 1 of 9 (5.62) |
| 38 | KSSQSVLYEIRNINSVA | WASTRES | QNYHRLPLS | ND ND ND | 0 of 9 |
| 39 | KSSQSVLYESRIKNSVA | WASTRES | QQYHRLPLS | 1.07 1.33 1.42 | 3 of 9 (4.71) |
| 40 | KHSQSVLYESRNKNSVA | WASTRES | QQYHWLPQS | ND ND ND | 0 of 9 |
| 41 | KSSQSVLYESRNKSSVA | WAFTRES | QQFHRLPLS | 1.70 1.87 1.77 | 1 of 9 (5.07) |
| 42 | KSSQSGLYESRNKNSVA | WASTRHS | QSYHRLPLS | 3.26 3.06 2.98 | 0 of 9 |
| 43 | KQSQSVLYESRNKNSVA | WASTREC | KQYHRLPLS | 2.05 2.07 3.15 | 0 of 9 |
| 44 | KSSQSVLYESRNKNSVI | WAWTRES | QQYHRLDLS | ND ND ND | 0 of 9 |
| 45 | KSSQSVLYESRNKNSVA | FASTRES | QLYHRLPLS | 2.80 2.67 2.32 | 3 of 9 (3.90) |
| 46 | KSSQSQLYESRNKNSVA | WASTRES | QQCHRLGLS | ND 3.37 4.20 | 0 of 9 |
| 47 | KSSQSVLNETRNKNSVM | WASTRES | QQYHRLPLS | ND ND ND | 3 of 9 (3.93) |
| 48 | KSSQSELYQSRNKFSVA | WASTRES | QQYHRLPLS | 2.97 2.10 2.38 | 5 of 9 (4.18) |
| 49 | KSSQSVLYESRNKRSFA | WASTRES | QQYHRLPPS | ND ND ND | 0 of 9 |
| 50 | KSSQSVLYESRNKNSVA | WASTRTS | QQYHRLPAS | 3.94 3.10 3.89 | 5 of 9 (4.59) |
| 51 | KSSQSVLYESANKNSVA | WAGTRES | QQYHRLPIS | 1.22 1.43 1.35 | 1 of 9 (4.65) |
| 52 | ASSQSVLYESRNKNSVA | WASDRES | QQYHRLPNS | 3.29 2.85 2.81 | 6 of 9 (3.98) |

The measurements come from Engelhart et al. 2022 (doi:10.1038/s41597-022-01779-4) through the FLAb antibody collection.